According to US9381182B2, “Anthranilic acid derivatives: novel inhibitors of advanced glycation end-products (AGEs) formation” (priority 2013, dated 2016):

Assays:
[1] = tested on: rat hepatocytes (CC1-Cell line); experiment: Fructose-derived AGE-mediated intracellular ROS generation, DCFH-DA technique; assay type: cell-based; conditions: 200 μg/mL, no test compound, 24 hours
Procedure: Methodology: DCFH-DA (Dichlorofluorescin diacetate), H2O2 (Hydrogen peroxide), DMSO (Dimethyl sulfoxide) and PBS (Phosphate buffer saline) were obtained from Sigma, St. Louis, Mo., USA. 96-well black fluorescence plates (Tissue culture treated) were purchased from Thermo Fisher Scientific, Waltham, Mass., USA.
Assay Method: Briefly, rat hepatocytes (CC1-Cell line, 6×10^4 cells/mL) were loaded on a black fluorescence 96-well tissue culture treated plate for 24 hours at 37° C. in an incubator, containing 5% CO2. […]
Fluorescence Detection: The intensity of green fluorescence, which is emitted upon the oxidation of the probe in the presence of intracellular ROS, is measured at the excitation and emission wavelength of 490 nm and 520 nm, respectively, by Spectra Max Spectrophotometer, Applied Biosystems, CA, USA.
Estimation of Percentage Inhibition of AGE-Induced Intracellular Generation of ROS by Novel Anthranilic Acid Derivatives: The percentage inhibition of AGEs-mediated intracellular generation of ROS in rat hepatocytes in the presence or absence of novel antiglycation agent, anthranilic acid derivative, was estimated by the following formula. % Inhibition=100−[(Fluorescence of test compound−Fluorescence of blank)/(Fluorescence of control−Fluorescence of blank)×100] […]

[2] = tested on: rat hepatocytes (CC1-Cell line); experiment: AGE-mediated reduced growth of rat hepatocytes, MTT assay; assay type: cell-based; conditions: 200 μg/mL, no test compound
Procedure: Methodology: Normal, rat hepatocytes (CC1-Cell line) was purchased from ATCC, Manassas, Va., USA. MEM (Minimum Essential Medium) with L-glutamine, trypsin-EDTA, sodium bicarbonate and penicillin-streptomycin were obtained from Sigma, St. Louis, Mo., USA. 96-well tissue culture treated, sterile, round bottom plates were acquired from Thermo Fisher Scientific, Waltham, Mass., USA. […]
Absorbance Detection: The absorbance of the colored solution was measured at 540 nm by Spectra Max Spectrophotometer, Applied Biosystems, CA, USA.
Estimation of Percentage Inhibition of AGE-Induced Diminished Cellular Proliferation: The percentage inhibition of AGEs-mediated diminished rat hepatocytes proliferation in the presence or absence of novel antiglycation agent, anthranilic acid derivative, was estimated by the following formula. % Inhibition=100−[(Absorbance of test compound−Absorbance of blank)/(Absorbance of control−Absorbance of blank)×100] […]

For “HSA: Human serum albumin, unglycated, comparison for AGEs in Tables 2 and 4”, the “Fluorescence (Average), ROS production” value [1] was 92.3, the “% Inhibition of hepatocyte proliferation” value [2] was 15.6% and the “Absorbance (Average)” value ([2]; 540 nm) was 1.11.
